Measured values published in patent publication US20030149244A1.

Chains of the proteins cited; added tags and fusions are not shown.
UniProt P01854, whole entry, chain 1 of 2: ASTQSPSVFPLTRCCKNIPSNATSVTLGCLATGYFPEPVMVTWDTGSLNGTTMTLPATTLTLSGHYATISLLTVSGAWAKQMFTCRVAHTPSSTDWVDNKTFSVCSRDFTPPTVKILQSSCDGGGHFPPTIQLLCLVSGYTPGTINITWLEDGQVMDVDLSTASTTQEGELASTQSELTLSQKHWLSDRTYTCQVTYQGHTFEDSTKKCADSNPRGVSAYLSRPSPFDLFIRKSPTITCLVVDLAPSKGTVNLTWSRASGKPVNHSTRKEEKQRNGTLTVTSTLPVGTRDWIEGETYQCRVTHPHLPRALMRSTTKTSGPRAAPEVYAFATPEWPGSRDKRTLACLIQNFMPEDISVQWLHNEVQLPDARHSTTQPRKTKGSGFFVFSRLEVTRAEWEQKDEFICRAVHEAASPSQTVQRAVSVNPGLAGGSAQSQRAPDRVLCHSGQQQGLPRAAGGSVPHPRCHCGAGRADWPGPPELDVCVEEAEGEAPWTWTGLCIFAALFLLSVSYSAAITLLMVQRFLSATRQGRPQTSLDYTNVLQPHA

Biological target: FcεRI-bound human IgE (IgE loaded on CHO 3D10 cells expressing the FcεRI alpha chain) (human) (UniProt P01854)
Test: FACS on IgE-loaded CHO 3D10 cells (FIG. 4), arithmetic/linear scale

Substance: humanized 4D5 (antibody)
- mean channel fluorescence at 0.1 µg/ml: 4.7
